Apparent affinities of Ab-14 variants for a coronavirus HR2 peptide

Source: Li et al. 2023 (doi:10.1038/s41467-023-39022-2), MIT Lincoln Laboratory and A-Alpha Bio; data file from the FLAb repository.

The target is the same throughout: PDVDLGDISGINAS, from the HR2 region of SARS-CoV-2 spike.

The variants keep the light chain, the linker and the frameworks of Ab-14 (scFv order VH, a 15-residue (Gly4Ser)3 linker, VL).
VH: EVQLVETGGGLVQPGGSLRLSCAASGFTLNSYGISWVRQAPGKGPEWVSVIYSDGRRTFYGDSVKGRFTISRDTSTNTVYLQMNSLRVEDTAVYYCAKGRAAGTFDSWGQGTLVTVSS
VL: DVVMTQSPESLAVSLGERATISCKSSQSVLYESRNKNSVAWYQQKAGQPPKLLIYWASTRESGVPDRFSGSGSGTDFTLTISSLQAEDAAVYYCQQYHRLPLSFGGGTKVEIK

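The parent was found by panning a naive human phage display library on the peptide. The variants were designed computationally from a first round of random CDR variants and then made and measured. Their group label is 14H_En_HC (En: ensemble of fine-tuned language models; HC: hill climbing; a sequence that several methods proposed may carry one label only). The scFvs were displayed on barcoded MATa yeast, the peptide on MATalpha yeast. The frequency of each diploid, read from paired DNA barcodes, reflects how well the two displayed proteins bind. Each replicate has its own calibration line, from reference interactions of the BCL2 family. There are six technical replicates.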

The parent's heavy chain CDRs are GFTLNSYGIS, VIYSDGRRTFYGDSVK, GRAAGTFDS; each variant's own CDRs replace them letter for letter. Numbers give log10(Kd / nM), so 0 is 1 nM and 3 is 1 µM. Smaller is tighter. Where no diploid with the target was found in that replicate, the entry reads "nd": below detection, most likely a poor binder, though not proof of it. A sequence measured in both rounds can read differently, since the two assays cover different ranges.

CDR-H1 | CDR-H2 | CDR-H3 | log10 Kd, replicates | empty controls
GFDLNEYGIS | VIYADGVRTFYADSVK | GKNAGTFDV | -0.40 / -0.50 / -0.21 / -0.31 / -0.55 / -0.30 | 0 of 18
GFDLNEYGIS | VIYADGQRTFYADSVK | GKIAGTFNV | -0.89 / -0.95 / -1.09 / -1.12 / -1.05 / -0.94 | 0 of 18
GFDLNEYGIS | VIYADGKRTAYSDSVK | GEAAGTFDV | -0.27 / -0.38 / -0.12 / 0.41 / -0.73 / 0.29 | 0 of 18
GFDLNEYGIS | VIYADGKRTAYIDSVK | GHAAGTFDS | -0.57 / -0.73 / -0.52 / -0.85 / -0.90 / -0.71 | 0 of 18
GFNLNEYGIS | VIYADGKRTFYADSVK | GEHAGTFDI | -1.04 / -1.17 / -1.49 / -1.67 / -0.60 / -1.70 | 0 of 18
GFNLNEYGIS | VIYADGRRTAYADSVK | GEAAGTFDV | -0.73 / 0.10 / -0.99 / -0.41 / -0.39 / -0.77 | 0 of 18
GFNLDEYGIS | VIYADGRRTFYADSVK | GEHAGSFDI | 0.65 / 0.99 / 0.70 / -0.05 / 0.30 / 1.58 | 0 of 18
GFTLNSYGIS | VIYADGRRTFYGDSVK | GRAAGTNKS | nd / nd / nd / nd / nd / nd | 0 of 18
GFDLDEYGIS | VIYADGRRTYYADSVK | GTNAGTFDS | 0.08 / -0.49 / -0.42 / -0.18 / 0.03 / 0.14 | 0 of 18
GFDLNEYGIS | VIYADGRRTAYADSVK | GQVAGTFDN | 0.17 / 0.20 / -0.01 / -0.22 / 0.09 / 0.33 | 4 of 18 (2.52)
GFDLNEYGIS | VIYADGRRTFYADSVK | GNVAGTFFQ | -0.37 / -0.29 / -0.73 / -0.60 / -0.78 / -0.46 | 0 of 18
GFDLNEYGIS | VIYADGKRTFYADSVK | GNQAGTFIS | 0.20 / 0.37 / 0.62 / 0.15 / 0.13 / 0.58 | 1 of 18 (1.92)
GFDLNEYGIS | VIYADGRRTAYTDSVK | GAFAGTFDQ | 0.35 / 0.48 / 0.59 / 0.24 / 0.18 / 0.35 | 2 of 18 (2.56)
GFDLNEYGIS | VIYADGRRTAYDDSVK | GQVAGTFDA | 0.92 / 0.86 / 0.69 / 0.52 / 0.53 / 1.06 | 1 of 18 (2.11)
GFDLNEYGIS | VIYADGKRTFYADSVK | GQIAGTFDS | -0.66 / -0.75 / -0.77 / -0.84 / -0.60 / -0.61 | 0 of 18
GFDLNEYGIS | VIYADGRRTFYTDSVK | GNVAGTFDS | -0.42 / -0.23 / -0.71 / -0.65 / -0.54 / -0.40 | 0 of 18
GFDLNEYGIS | VIYADGRRTFYIDKVK | GENAGTFDV | -0.21 / 0.14 / -0.12 / -0.30 / -0.27 / -0.33 | 0 of 18
GFDLDEYGIS | VIYADGRRTFYSDSVK | GGTAGTFDV | -0.02 / -0.22 / -0.44 / -0.22 / 0.01 / -0.07 | 1 of 18 (3.05)
GFDLNEYGIS | VIYADGRRTFYTDSVK | GNVAGTFDV | -0.32 / -0.08 / -0.46 / -0.27 / -0.20 / -0.38 | 1 of 18 (1.85)
GFNLNEYGIS | VIYADGRRTFYADSVK | GQIAGTFVV | nd / 1.57 / 1.14 / 1.15 / 1.71 / 2.36 | 0 of 18
GFDLNEYGIS | VIYADGKRTFYSDDVK | GNVAGTFDI | -0.53 / -0.65 / -0.28 / -0.63 / -0.43 / -0.15 | 1 of 18 (1.76)
GFDLNEYGIS | VIYADGVRTFYSDSVK | GTVAGTFDS | -0.21 / 0.08 / -0.46 / -0.60 / -0.78 / -0.54 | 0 of 18
GFDLNEYGIS | VIYADGQRTAYADSVK | GKVAGTFDN | -0.81 / -0.78 / -1.33 / -1.03 / -1.16 / -0.80 | 0 of 18
GFDLNEYGIS | VIYADGVRTFYSDSVK | GNQAGTFDV | 0.17 / 0.00 / 0.02 / -0.11 / -0.11 / 0.21 | 0 of 18
GFTLDEYGIS | VIYADGRRTFYADSVK | GEHAGTFDI | 0.54 / 0.67 / 0.49 / 0.32 / 0.54 / 0.59 | 1 of 18 (4.25)
GFNLNEYGIS | VIYADGRRSFYSDSVK | GEIAGTFDV | -0.11 / -0.15 / -0.07 / 0.00 / -0.20 / -0.24 | 0 of 18
GFDLNEYGIS | VIYADGRRTFYADSVK | GNTAGTFIS | -0.47 / 0.91 / 0.20 / 0.29 / 0.28 / -0.04 | 0 of 18
GFDLNEYGIS | VIYADGMRTQYIDSVK | GEAAGTFDS | nd / 0.44 / -0.28 / nd / -0.27 / -0.16 | 0 of 18
GFDLNEYGIS | VIYADGVRTFYVDSVK | GQTAGTFDS | -0.25 / -0.18 / -0.57 / -0.53 / -0.61 / -0.40 | 2 of 18 (1.89)
GFDLDEYGIS | VIYADGRRTFYADSVK | GEHAGTFDT | -0.05 / -0.15 / -0.32 / -0.35 / -0.11 / -0.02 | 0 of 18
GFDLNEYGIS | VIYADGSRTFYSDSVK | GQTAGTFDV | 0.14 / 0.00 / 0.88 / -0.34 / -0.08 / 0.04 | 0 of 18
GFDLNEYGIS | VIYADGMRTAYTDSVK | GEVAGTFDS | nd / nd / 3.43 / nd / 0.92 / nd | 0 of 18
GFDLEDYGIS | VIYADGRRTAYADSVK | GNVAGTFIS | 0.58 / 0.33 / 0.56 / 0.18 / 0.46 / 0.49 | 1 of 18 (2.46)
GFDLNEYGIS | VIYADGRRTFYVDSVK | GENAGTFDS | -0.22 / -0.22 / -0.35 / -0.31 / -0.21 / -0.14 | 0 of 18
GFDLNEYGIS | VIYADGRRTFYQDSVK | GEIAGTFDI | -0.18 / 0.00 / 0.14 / -0.53 / -0.21 / 0.19 | 0 of 18
GFDLDEYGIS | VIYADGRRTFYADSVK | GEAAGTFDM | -0.24 / -0.59 / -0.86 / -1.06 / -0.73 / -0.58 | 0 of 18
GFDLNEYGIS | VIYADGSRTFYSDSVK | GNQAGTFDQ | 0.36 / 0.53 / 0.24 / -0.49 / -0.62 / -0.12 | 0 of 18
GFDLNEYGIS | VIYADGRRKFYADSVK | GNVAGTFDV | -0.89 / -0.40 / -0.97 / -0.95 / -0.74 / -0.66 | 0 of 18
GFDLNEYGIS | VIYADGKRTFYSDSVK | GNVAGTFDK | 0.30 / -0.94 / -0.38 / -0.79 / -0.88 / -0.94 | 0 of 18
GFDLNEYGIS | VIYADGRRTAYSDSVK | GNAGGTFDV | 0.18 / 0.56 / -0.32 / -0.28 / 0.17 / 0.10 | 0 of 18
GFDLDEYGIS | VIYADGMRTAYTDSVK | GEVAGTFDA | -0.68 / 0.21 / -0.56 / -0.67 / -0.71 / -0.41 | 0 of 18
GFDLNEYGIS | VIYADGRRTFYSDSVK | GENAGSFDV | 0.01 / 0.34 / 0.00 / -0.30 / 0.06 / -0.02 | 0 of 18
GFDLNEYGIS | VIYADGRRTFYTDSVK | GTIAGTFDV | -0.38 / -0.70 / -0.66 / -0.52 / -0.29 / -0.31 | 1 of 18 (1.84)
GFDLNEYGIS | VIYADGRRTSYIDSVK | GEQAGTFDS | nd / -0.18 / -0.23 / nd / 0.71 / 1.41 | 0 of 18
GFDLNEYGIS | VIYADGRRTFYADSVK | GNQAGTFII | 1.62 / 2.99 / 1.52 / 2.04 / 1.35 / 1.60 | 3 of 18 (2.52)
GFDLNEYGIS | VIYADGMRTFYTDSVK | GEGAGTFDS | 0.09 / -0.28 / 0.07 / 0.41 / 0.57 / 0.51 | 0 of 18

Picked from the list: the 3 lowest averages where every replicate gave a value.

| CDR-H1 | CDR-H2 | CDR-H3 | log10 Kd, replicates | empty controls |
|---|---|---|---|---|
| GFNLNEYGIS | VIYADGKRTFYADSVK | GEHAGTFDI | -1.04 / -1.17 / -1.49 / -1.67 / -0.60 / -1.70 | 0 of 18 |
| GFDLNEYGIS | VIYADGQRTFYADSVK | GKIAGTFNV | -0.89 / -0.95 / -1.09 / -1.12 / -1.05 / -0.94 | 0 of 18 |
| GFDLNEYGIS | VIYADGQRTAYADSVK | GKVAGTFDN | -0.81 / -0.78 / -1.33 / -1.03 / -1.16 / -0.80 | 0 of 18 |

The authors' rule: three or more of the six replicates give a measured affinity, fewer mean a poor binder. The parent sequence was in this pool as ten entries: three were never detected, three once, and four in most replicates, with averages from 0.34 to 2.37. Nonspecific signal, from three strains lacking the peptide, appeared in 1% of pairings of all heavy chain designs, centred on 2.08 (5% of these signals below 0.84); values are not corrected for it. Also given: how often the same scFv was detected with the empty control strains, with their mean in brackets.